Earlier results, collected in publication PMC10094977.

How the values were obtained:
[1] = target: Cav1.2 IQ peptide 1644-1670 (Oryctolagus cuniculus) (UniProt P15381); assay: fluorescence anisotropy
[2] = target: Cav1.2 IQ' peptide 1650-1675 (Oryctolagus cuniculus) (UniProt P15381); assay: fluorescence anisotropy
[3] = target: Cav1.2 preIQ-A peptide 1588-1609 (Oryctolagus cuniculus) (UniProt P15381); assay: fluorescence anisotropy
[4] = target: Cav1.2 preIQ-C peptide 1614-1635 (Oryctolagus cuniculus) (UniProt P15381); assay: fluorescence anisotropy
[5] = target: Cav1.3 channel (UniProt Q01668)
[6] = target: Cav1.2 alpha1C preIQ (CB domain) preIQ (UniProt Q13936)
[7] = target: Cav1.2 alpha1C IQ domain IQ (UniProt Q13936)

| Substance | Kd [1] [nM] | Kd [2] [nM] | Kd [3] [nM] | Kd [4] [nM] | Kd [5] [nM] | Kd [6] [nM] | Kd [7] [nM] |
| --- | --- | --- | --- | --- | --- | --- | --- |
| Ca2+/calmodulin (from UniProt P0DP23) | < 2 | < 2 | < 2 | < 2 |  |  |  |
| Calmodulin (from UniProt P0DP23) |  |  |  |  | 10 | 12 | 40 |
| apocalmodulin (from UniProt P0DP23) | 14000 | > 10000 | > 10000 | > 10000 |  |  |  |
